The record followed here is US20060264460A1 (Wyeth, priority 2005, published 2006).

Sequences of proteins named here, by UniProt entry; tags and fusion partners are left off. Residues count along the entry.
UniProt P41279, 30-398 limits assumed: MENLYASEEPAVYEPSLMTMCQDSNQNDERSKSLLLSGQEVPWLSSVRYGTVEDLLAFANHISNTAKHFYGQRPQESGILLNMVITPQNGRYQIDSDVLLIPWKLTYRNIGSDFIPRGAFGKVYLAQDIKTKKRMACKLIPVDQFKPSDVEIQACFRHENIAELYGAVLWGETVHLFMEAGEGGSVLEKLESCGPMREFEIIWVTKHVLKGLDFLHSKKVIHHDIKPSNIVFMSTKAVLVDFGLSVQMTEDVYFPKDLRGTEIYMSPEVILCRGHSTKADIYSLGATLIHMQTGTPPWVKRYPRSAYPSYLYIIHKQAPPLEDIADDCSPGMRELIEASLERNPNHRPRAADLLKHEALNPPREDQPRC

In this experiment the target is human Cot/Tpl2 kinase (Homo sapiens, UniProt P41279). Nature of the experiment: Tpl2/Cot kinase assay: GST-MEK1 phosphorylation detected by ELISA (DELFIA Eu). The format is biochemical. Particulars: 50 uM ATP. (An ELISA detects its analyte on a solid surface through an enzyme-linked reagent.)

pIC50: −log10 of the molar value.

The molecule `N#Cc1cnc2c(Cl)cc(NCc3cn(C4CN5CCC4CC5)nn3)cc2c1Nc1ccc(F)c(Cl)c1` (stereo not drawn) gave a pIC50 (GST-MEK1 substrate) of 8.74.

Molecule `CC(C)(C)Nc1c(C#N)cnc2ccc(NCc3cccc(S(C)(=O)=O)c3)cc12` showed a pIC50 (Table 2, GST-MEK1 substrate) of 5.32.

`N#Cc1cnc2c(Br)cc(NCc3cn(Cc4cccc(C(F)(F)F)n4)nn3)cc2c1Nc1ccc(F)c(Cl)c1` showed a pIC50 (GST-MEK1 substrate) of 6.57.

For orientation: pIC50 means the IC50 on a negative log10 scale, so that one unit is a factor of ten. The low end stands for a high IC50, the high end for a low IC50.
